From EP0975604B1, “PYRIDAZINONES AS INHIBITORS OF CYCLOOXYGENASE-2” (MERCK FROSST CANADA & CO., priority 1997, dated 1998)

Amino acid sequences for entries named in this document (tags omitted). Residues count along the entry.
UniProt P23219, 24-599: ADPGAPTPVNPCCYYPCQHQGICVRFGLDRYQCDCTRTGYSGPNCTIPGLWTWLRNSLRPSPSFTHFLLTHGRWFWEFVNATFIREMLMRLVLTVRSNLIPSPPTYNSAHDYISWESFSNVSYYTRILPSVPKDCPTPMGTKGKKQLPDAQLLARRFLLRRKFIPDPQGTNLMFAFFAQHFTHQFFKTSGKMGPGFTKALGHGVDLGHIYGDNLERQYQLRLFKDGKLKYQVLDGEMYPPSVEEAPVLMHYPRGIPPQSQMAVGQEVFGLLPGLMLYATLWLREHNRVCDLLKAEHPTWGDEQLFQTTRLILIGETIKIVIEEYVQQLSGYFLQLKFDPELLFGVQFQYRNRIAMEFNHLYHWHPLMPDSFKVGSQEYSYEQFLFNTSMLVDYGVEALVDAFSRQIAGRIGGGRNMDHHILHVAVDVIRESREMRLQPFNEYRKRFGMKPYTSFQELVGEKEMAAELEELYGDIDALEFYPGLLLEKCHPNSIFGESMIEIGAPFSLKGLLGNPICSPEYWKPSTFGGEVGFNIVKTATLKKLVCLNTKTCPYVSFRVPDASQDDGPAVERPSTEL

Biological target: COX-1 (Homo sapiens, UniProt P23219)
Test: Assay of COX-1 activity from U937 cell microsomes
Format: biochemical
Set-up: endogenous in cells; host or cells: U937 cells, 100,000 x g microsomal pellet
Conditions: PGE2, read-out: COX-1 (IC50 µM) U-937
Protocol: U 937 cells are pelleted by centrifugation at 500 x g for 5 min and washed once with phosphate-buffered saline and repelleted. Cells are resuspended in homogenization buffer consisting of 0.1 M Tris-HCl, pH 7.4, 10 mM EDTA, 2 µg/ml leupeptin, 2 µg/ml soybean trypsin inhibitor, 2 µg/ml aprotinin and 1 mM phenyl methyl sulfonyl fluoride. The cell suspension is sonicated 4 times for 10 sec and is centrifuged at 10,000 x g for 10 min at 4° C. The supernatant is centrifuged at 100,000 x g for 1 hr at 4 °C. The 100,000 x g microsomal pellet is resuspended in 0.1 M Tris-HCl, pH 7.4, 10 mM EDTA to approximately 7 mg protein/ml and stored at -80° C.
Assays are performed in duplicate in a final volume of 250 µl. Initially, 5 µl of DMSO vehicle or drug in DMSO are added to 20 µl of 0.1 M Tris-HCl buffer, pH 7.4 containing 10 mM EDTA in wells of a 96-deepwell polypropylene titre plate. […] Samples are neutralized with 25 µl of 1 N NaOH prior to quantitation of PGE2 content by radioimmunoassay (Dupont-NEN or Amersham assay kits). […]
In the assay, inhibition is determined by measuring the amount of prostaglandin E2 (PGE2) synthesized in the presence of arachidonic acid, cyclooxygenase-1 or cyclooxygenase-2 and a putative inhibitor.

For `Cn1ncc(-c2ccc(S(C)(=O)=O)cc2)c(-c2ccccc2)c1=O` [Example 2, 2-Methyl-5-(4-methylsulfonyl)phenyl-4-phenyl-2H-pyridazin-3-one], the IC50 was over 10 µM.
